In general, Ki refers to a dissociation constant, usually derived from enzyme kinetics or from competition with a known ligand.

Chains of the proteins cited; added tags and fusions are not shown.
UniProt P32245, whole entry: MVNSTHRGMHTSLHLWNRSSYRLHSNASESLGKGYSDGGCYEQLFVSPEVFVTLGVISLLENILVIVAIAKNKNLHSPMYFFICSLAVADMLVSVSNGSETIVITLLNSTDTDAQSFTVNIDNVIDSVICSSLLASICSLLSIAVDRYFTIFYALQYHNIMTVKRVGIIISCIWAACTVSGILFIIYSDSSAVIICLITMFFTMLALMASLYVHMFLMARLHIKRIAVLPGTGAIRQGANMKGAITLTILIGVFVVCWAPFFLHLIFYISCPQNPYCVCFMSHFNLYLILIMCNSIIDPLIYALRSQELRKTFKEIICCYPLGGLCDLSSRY

The source of these data is patent publication US20070105759A1 (priority 2003, published 2007).

For this test, the target named is MC4 (Homo sapiens, UniProt P32245). To be noted: read-out: MC4 Ki.
On to `CC(=O)N[C@@H](Cc1ccc(O)cc1)C(=O)N[C@@H](CCCNC(=N)N)C(=O)N[C@H]1CSSC[C@@H](C(=O)NC(CO)CO)NC(=O)[C@H](Cc2c[nH]c3ccccc23)NC(=O)[C@H](CCCNC(=N)N)NC(=O)[C@@H](Cc2ccccc2)NC(=O)[C@H](Cc2c[nH]cn2)NC(=O)[C@H](CCC(=O)O)NC1=O` [Compound No. 116, Ac-Tyr-Arg-cyclo[Cys-Glu-His-D-Phe-Arg-Trp-Cys]-Ser alcohol], for which the inhibitory constant (Ki) was 2000 pM.

As for `CC(=O)N[C@@H](Cc1ccc(O)cc1)C(=O)N[C@@H](CCCNC(=N)N)C(=O)N[C@H]1CSSC[C@@H](C(=O)NCCCCCCN)NC(=O)[C@H](Cc2c[nH]c3ccccc23)NC(=O)[C@H](CCCNC(=N)N)NC(=O)[C@@H](Cc2ccccc2)NC(=O)[C@H](Cc2c[nH]cn2)NC(=O)[C@H](CCC(=O)O)NC1=O` [Compound No. 117, Ac-Tyr-Arg-cyclo[Cys-Glu-His-D-Phe-Arg-Trp-Cys]-NH-(CH2)6-NH2], the inhibition constant (Ki) worked out at 630 pM. Consider `CC(=O)N[C@@H](Cc1ccc(O)cc1)C(=O)N[C@@H](CCCNC(=N)N)C(=O)N[C@H]1CSSC[C@@H](C(=O)N[C@@H](CCC(=O)O)C(N)=O)NC(=O)[C@H](Cc2c[nH]c3ccccc23)NC(=O)[C@H](CCCNC(=N)N)NC(=O)[C@@H](Cc2ccccc2)NC(=O)[C@H](Cc2c[nH]cn2)NC(=O)[C@H](CCC(=O)O)NC1=O` [Compound No. 118, Ac-Tyr-Arg-cyclo[Cys-Glu-His-D-Phe-Arg-Trp-Cys]-Glu-NH2], for which the Ki came out at 4590 pM. Then `CC(=O)N[C@@H](Cc1ccc(O)cc1)C(=O)N[C@@H](CCCNC(=N)N)C(=O)N[C@H]1CSSC[C@@H](C(=O)N[C@@H](CO)C(=O)N2CCC[C@H]2CO)NC(=O)[C@H](Cc2c[nH]c3ccccc23)NC(=O)[C@H](CCCNC(=N)N)NC(=O)[C@@H](Cc2ccccc2)NC(=O)[C@H](Cc2c[nH]cn2)NC(=O)[C@H](CCC(=O)O)NC1=O` [Compound No. 120, Ac-Tyr-Arg-cyclo[Cys-Glu-His-D-Phe-Arg-Trp-Cys]-Ser-Pro alcohol], with 400 pM. Next, `CC(=O)N[C@@H](Cc1ccc(O)cc1)C(=O)N[C@@H](CCCNC(=N)N)C(=O)N[C@H]1CSSC[C@@H](C(=O)N[C@@H](CCCCN)C(=O)N2CCC[C@H]2C(N)=O)NC(=O)[C@H](Cc2c[nH]c3ccccc23)NC(=O)[C@H](CCCNC(=N)N)NC(=O)[C@@H](Cc2ccccc2)NC(=O)[C@H](Cc2c[nH]cn2)NC(=O)[C@H](CCC(=O)O)NC1=O` [Compound No. 121, Ac-Tyr-Arg-cyclo[Cys-Glu-His-D-Phe-Arg-Trp-Cys]-Lys-Pro-NH2]: 340 pM; `CC(=O)N[C@@H](Cc1ccc(O)cc1)C(=O)N[C@@H](CCCNC(=N)N)C(=O)N[C@H]1CSSC[C@@H](C(=O)N[C@@H](CCCCN)C(=O)N2CCC[C@H]2CO)NC(=O)[C@H](Cc2c[nH]c3ccccc23)NC(=O)[C@H](CCCNC(=N)N)NC(=O)[C@@H](Cc2ccccc2)NC(=O)[C@H](Cc2c[nH]cn2)NC(=O)[C@H](CCC(=O)O)NC1=O` [Compound No. 122, Ac-Tyr-Arg-cyclo[Cys-Glu-His-D-Phe-Arg-Trp-Cys]-Lys-Pro alcohol]: 300 pM. Next, `CC(=O)N[C@@H](Cc1ccc(O)cc1)C(=O)N[C@@H](CCCNC(=N)N)C(=O)N[C@H]1CSSC[C@@H](C(=O)N[C@@H](CCCNC(=N)N)C(=O)N[C@@H](Cc2ccccc2)C(N)=O)NC(=O)[C@H](Cc2c[nH]c3ccccc23)NC(=O)[C@H](CCCNC(=N)N)NC(=O)[C@@H](Cc2ccccc2)NC(=O)[C@H](Cc2c[nH]cn2)NC(=O)[C@H](CCC(=O)O)NC1=O` [Compound No. 123, Ac-Tyr-Arg-cyclo[Cys-Glu-His-D-Phe-Arg-Trp-Cys]-Arg-Phe-NH2]: 1130 pM; `CC(=O)N[C@@H](Cc1ccc(O)cc1)C(=O)N[C@@H](CCCNC(N)=O)C(=O)N[C@H]1CSSC[C@@H](C(N)=O)NC(=O)[C@H](Cc2c[nH]c3ccccc23)NC(=O)[C@H](CCCNC(=N)N)NC(=O)[C@@H](Cc2ccccc2)NC(=O)[C@H](Cc2cn(C)cn2)NC(=O)[C@H](CCC(=O)O)NC1=O` [Compound No. 125, Ac-Tyr-Cit-cyclo[Cys-Glu-(1-Me-His)-D-Phe-Arg-Trp-Cys]-NH2]: 19900 pM; `CC(=O)N[C@@H](Cc1ccc(O)cc1)C(=O)N[C@@H](CCCCNC(=N)N)C(=O)N[C@H]1CSSC[C@@H](C(N)=O)NC(=O)[C@H](Cc2c[nH]c3ccccc23)NC(=O)[C@H](CCCNC(=N)N)NC(=O)[C@@H](Cc2ccccc2)NC(=O)[C@H](Cc2c[nH]cn2)NC(=O)[C@H](CCC(=O)O)NC1=O` [Compound No. 126, Ac-Tyr-hArg-cyclo[Cys-Glu-His-D-Phe-Arg-Trp-Cys]-NH2]: 740 pM. `CC(=O)N[C@@H](Cc1ccc(O)cc1)C(=O)N[C@@H](CCCNC(=N)N)CC(=O)N[C@H]1CSSC[C@@H](C(N)=O)NC(=O)[C@H](Cc2c[nH]c3ccccc23)NC(=O)[C@H](CCCNC(=N)N)NC(=O)[C@@H](Cc2ccccc2)NC(=O)[C@H](Cc2c[nH]cn2)NC(=O)[C@H](CCC(=O)O)NC1=O` [Compound No. 127, Ac-Tyr-(1-β-hArg)-cyclo[Cys-Glu-His-D-Phe-Arg-Trp-Cys]-NH2]: the Ki is 280 pM. Next, `CC(=O)N[C@@H](Cc1ccc(O)cc1)C(=O)N[C@@H](CCCCN)C(=O)N[C@H]1CSSC[C@@H](C(N)=O)NC(=O)[C@H](Cc2c[nH]c3ccccc23)NC(=O)[C@H](CCCNC(=N)N)NC(=O)[C@@H](Cc2ccccc2)NC(=O)[C@H](Cc2c[nH]cn2)NC(=O)[C@H](CCC(=O)O)NC1=O` [Compound No. 128, Ac-Tyr-Lys-cyclo[Cys-Glu-His-D-Phe-Arg-Trp-Cys]-NH2]: 890 pM; `CC(=O)N[C@@H](Cc1ccc(O)cc1)C(=O)N[C@@H](CO)C(=O)N[C@H]1CSSC[C@@H](C(N)=O)NC(=O)[C@H](Cc2c[nH]c3ccccc23)NC(=O)[C@H](CCCNC(=N)N)NC(=O)[C@@H](Cc2ccccc2)NC(=O)[C@H](Cc2c[nH]cn2)NC(=O)[C@H](CCC(=O)O)NC1=O` [Compound No. 129, Ac-Tyr-Ser-cyclo[Cys-Glu-His-D-Phe-Arg-Trp-Cys]-NH2]: 2180 pM; `CC(=O)N[C@@H](Cc1ccc(O)cc1)C(=O)N[C@H](C(=O)N[C@H]1CSSC[C@@H](C(N)=O)NC(=O)[C@H](Cc2c[nH]c3ccccc23)NC(=O)[C@H](CCCNC(=N)N)NC(=O)[C@@H](Cc2ccccc2)NC(=O)[C@H](Cc2c[nH]cn2)NC(=O)[C@H](CCC(=O)O)NC1=O)C(C)C` [Compound No. 130, Ac-Tyr-Val-cyclo[Cys-Glu-His-D-Phe-Arg-Trp-Cys]-NH2]: 1980 pM. For `N=C(N)NCCC[C@@H]1NC(=O)[C@@H](Cc2ccccc2)NC(=O)[C@H](Cc2c[nH]cn2)NC(=O)[C@@H](N)CCSSC[C@@H](C(=O)O)NC(=O)[C@H](Cc2c[nH]c3ccccc23)NC1=O` [Compound No. 133, cyclo[hCys-His-D-Phe-Arg-Trp-Cys]-OH], the Ki is 9080 pM. For `N=C(N)NCCC[C@@H]1NC(=O)[C@@H](Cc2ccc(Cl)cc2)NC(=O)[C@H](Cc2c[nH]cn2)NC(=O)[C@@H](N)CCSSC[C@@H](C(N)=O)NC(=O)[C@H](Cc2c[nH]c3ccccc23)NC1=O` [Compound No. 135, cyclo[hCys-His-(4-Cl-D-Phe)-Arg-Trp-Cys]-NH2], the Ki amounted to 60 pM. Then `CC(=O)N[C@H]1CCSSC[C@@H](C(=O)O)NC(=O)[C@H](Cc2c[nH]c3ccccc23)NC(=O)[C@H](CCCNC(=N)N)NC(=O)[C@@H](Cc2ccccc2)NC(=O)[C@H](Cc2c[nH]cn2)NC1=O` [Compound No. 138, Ac-cyclo[hCys-His-D-Phe-Arg-Trp-Cys]-OH], with 3080 pM; and `CC(=O)N[C@H]1CCSSC[C@@H](C(N)=O)NC(=O)[C@H](Cc2c[nH]c3ccccc23)NC(=O)[C@H](CCCNC(=N)N)NC(=O)[C@@H](Cc2ccc(F)cc2)NC(=O)[C@H](Cc2c[nH]cn2)NC1=O` [Compound No. 139, Ac-cyclo[hCys-His-(4-F-D-Phe)-Arg-Trp-Cys]-NH2], with 380 pM. Then `CC(=O)N[C@H]1CCSSC[C@@H](C(N)=O)NC(=O)[C@H](Cc2c[nH]c3ccccc23)NC(=O)[C@H](CCCNC(=N)N)NC(=O)[C@@H](Cc2ccc(Cl)cc2)NC(=O)[C@H](Cc2c[nH]cn2)NC1=O` [Compound No. 140, Ac-cyclo[hCys-His-(4-Cl-D-Phe)-Arg-Trp-Cys]-NH2], with 200 pM.

In the case of `N=C(N)NCCC[C@@H]1NC(=O)[C@@H](Cc2ccccc2)NC(=O)[C@H](Cc2c[nH]cn2)NC(=O)[C@@H](NC(=O)C2CC2)CCSSC[C@@H](C(N)=O)NC(=O)[C@H](Cc2c[nH]c3ccccc23)NC1=O` [Compound No. 141, N-cyclopropanecarbonyl-cyclo[hCys-His-D-Phe-Arg-Trp-Cys]-NH2], the Ki was 190 pM. Next, `N=C(N)NCCC[C@@H]1NC(=O)[C@@H](Cc2ccccc2)NC(=O)[C@H](Cc2c[nH]cn2)NC(=O)[C@@H](NC(=O)C2CCCC2)CCSSC[C@@H](C(N)=O)NC(=O)[C@H](Cc2c[nH]c3ccccc23)NC1=O` [Compound No. 143, N-cyclopentanecarbonyl-cyclo[hCys-His-D-Phe-Arg-Trp-Cys]-NH2]: 80 pM; `N=C(N)NCCC[C@@H]1NC(=O)[C@@H](Cc2ccccc2)NC(=O)[C@H](Cc2c[nH]cn2)NC(=O)[C@@H](NC(=O)C2CCCCC2)CCSSC[C@@H](C(N)=O)NC(=O)[C@H](Cc2c[nH]c3ccccc23)NC1=O` [Compound No. 144, N-cyclohexanecarbonyl-cyclo[hCys-His-D-Phe-Arg-Trp-Cys]-NH2]: 300 pM; `CCCCCC(=O)N[C@H]1CCSSC[C@@H](C(N)=O)NC(=O)[C@H](Cc2c[nH]c3ccccc23)NC(=O)[C@H](CCCNC(=N)N)NC(=O)[C@@H](Cc2ccccc2)NC(=O)[C@H](Cc2c[nH]cn2)NC1=O` [Compound No. 145, N-hexanoyl-cyclo[hCys-His-D-Phe-Arg-Trp-Cys]-NH2]: 730 pM. Next, `N=C(N)NCCC[C@@H]1NC(=O)[C@@H](Cc2ccccc2)NC(=O)[C@H](Cc2c[nH]cn2)NC(=O)[C@@H](NC(=O)CCCc2ccccc2)CCSSC[C@@H](C(N)=O)NC(=O)[C@H](Cc2c[nH]c3ccccc23)NC1=O` [Compound No. 147, 4-phenylbutyryl-cyclo[hCys-His-D-Phe-Arg-Trp-Cys]-NH2]: 70 pM. As for `N=C(N)NCCC[C@@H]1NC(=O)[C@@H](Cc2ccccc2)NC(=O)[C@H](Cc2c[nH]cn2)NC(=O)[C@@H](NC(=O)CCNC(=N)N)CCSSC[C@@H](C(N)=O)NC(=O)[C@H](Cc2c[nH]c3ccccc23)NC1=O` [Compound No. 148, 3-guanidinopropionyl-cyclo[hCys-His-D-Phe-Arg-Trp-Cys]-NH2], the Ki came out at 100 pM.
